Test results as given in patent US7915448B2, “Substituted sulfonylaminoarylmethyl cyclopropanecarboxamide as VR1 receptor antagonists” (Pfizer Inc., priority 2005, dated 2011).

The chains behind the UniProt entries cited, without tags or fusion partners.
UniProt Q8NER1, whole entry: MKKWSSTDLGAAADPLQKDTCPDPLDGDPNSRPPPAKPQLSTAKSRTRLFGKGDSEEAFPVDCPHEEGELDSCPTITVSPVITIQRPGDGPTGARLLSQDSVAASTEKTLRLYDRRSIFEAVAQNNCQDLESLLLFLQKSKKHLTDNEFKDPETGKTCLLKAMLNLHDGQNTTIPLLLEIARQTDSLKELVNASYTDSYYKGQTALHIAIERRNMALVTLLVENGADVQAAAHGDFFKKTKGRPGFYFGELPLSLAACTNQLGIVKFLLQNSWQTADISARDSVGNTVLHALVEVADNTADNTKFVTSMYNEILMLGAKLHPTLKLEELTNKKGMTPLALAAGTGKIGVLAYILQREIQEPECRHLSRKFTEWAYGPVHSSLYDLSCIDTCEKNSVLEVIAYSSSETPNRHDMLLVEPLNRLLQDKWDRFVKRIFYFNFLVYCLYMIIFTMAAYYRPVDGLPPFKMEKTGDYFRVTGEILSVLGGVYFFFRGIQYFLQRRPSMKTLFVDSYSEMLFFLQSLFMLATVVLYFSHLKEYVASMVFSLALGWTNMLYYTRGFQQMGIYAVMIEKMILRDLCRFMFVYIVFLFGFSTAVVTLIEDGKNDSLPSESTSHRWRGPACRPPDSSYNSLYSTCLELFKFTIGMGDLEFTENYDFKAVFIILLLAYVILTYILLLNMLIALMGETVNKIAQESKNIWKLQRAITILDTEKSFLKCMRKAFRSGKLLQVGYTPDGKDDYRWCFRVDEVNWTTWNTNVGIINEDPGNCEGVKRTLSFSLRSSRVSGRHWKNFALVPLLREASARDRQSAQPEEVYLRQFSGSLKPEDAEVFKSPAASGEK

target: human VR1 receptors (Homo sapiens, UniProt Q8NER1); assay: Human VR1 antagonist assay (Ca2+ imaging); conditions: cells expressing human VR1, fura-2 Ca2+ imaging, FDSS 6000; capsaicin (300 nM) or acid (pH5.8) stimulation, table does not say which
Source text: Human VR1 Antagonist Assay
VR1 antagonistic activity can be determined by the Ca^2+ imaging assay using human VR1 highly expressing cells. The cells that highly express human VR1 receptors are obtainable from several different conventional methods. The one standard method is cloning from human Dorsal Root Ganglion (DRG) or kidney according to the methods such as described in the journal article; Nature, 389, pp 816-824, 1997. Alternatively VR1 receptors highly expressing human keratinocytes are also known and published in the journal article (Biochemical and Biophysical Research Communications, 291, pp 124-129, 2002). […] Further more, the method to up regulate human VR1 gene, which is usually a silent gene or don't produce detectable level of VR1 receptors, is also available to obtain propriety cells. Such genetic modification method was described in detail; Nat. Biotechnol., 19, pp 440-445, 2001.
The cells that express human VR1 receptors were maintained in culture flask at 37° C. in an environment containing 5% CO2 until use in the assay. The intracellular Ca^2+ imaging assay to determine VR1 antagonistic activities were done by following procedures.
The culture medium was removed from the flask and fura-2/AM fluorescent calcium indicator was added to the flask at a concentration of 5 μM in the medium. The flask was placed in CO2 incubator and incubated for 1 hour. Then the cells expressing the human VR1 receptors were detached from the flask follow by washing with phosphate buffer saline, PBS(−) and re-suspended in assay buffer. […]
The capsaicin-induced changes in the intracellular calcium concentration were monitored using FDSS 6000 (Hamamatsu Photonics, Japan), a fluorometric imaging system. […]
The Acid-induced changes in the intracellular calcium concentration were monitored using FDSS 6000 (Hamamatsu Photonics, Japan), a fluorometric imaging system. […]
The monitoring of the changes in the fluorescence signals (λex=340 nm/380 nm, λem=510-520 nm) was initiated at 1 minute prior to the addition of capsaicin solution or acidic buffer and continued for 5 minute.

`C[C@@H](NC(=O)[C@H]1C[C@]1(C)c1ccc(OC(F)(F)F)cc1)c1cc(F)c(NS(C)(=O)=O)c(F)c1` and `C[C@@H](NC(=O)[C@H]1C[C@@H]1c1ccc(C(C)(C)C)c(F)c1)c1ccc(NS(C)(=O)=O)c(F)c1` are within 1.5-fold of each other in IC50: 42.2 nM for the first, 39.6 nM for the second.

`Cc1cc([C@@H](C)NC(=O)C2CC2c2ccc(C(F)(F)F)cc2)ccc1NS(C)(=O)=O` (stereo partly drawn) [Example 19a, N-((1R)-1-{3-Methyl-4-[(methylsulfonyl)amino]phenyl}ethyl)-2-[4-(trifluoromethyl)phenyl]cyclopropanecarboxamide] was tested, and the IC50 was 71 nM.
